Among the data in patent publication US20250262222A1, “HETEROCYCLIC COMPOUNDS, COMPOSITIONS THEREOF, AND METHODS OF TREATMENT THEREWITH” (BeiGene Switzerland GmbH, priority 2022, published 2025) are IC50 values, retold here.

Amino acid sequences for entries named in this document (tags omitted). A change or cut given only in a name is not applied to a line headed by its entry. Residues count along the entry.
UniProt P01116, 1-169 isoform 2 G12V limits assumed: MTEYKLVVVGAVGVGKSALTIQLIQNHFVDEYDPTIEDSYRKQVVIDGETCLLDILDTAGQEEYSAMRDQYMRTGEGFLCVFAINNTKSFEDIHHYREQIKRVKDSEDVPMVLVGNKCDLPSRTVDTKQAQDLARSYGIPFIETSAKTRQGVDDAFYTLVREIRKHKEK

Molecules are shown by their SMILES.

Experiment [1] deals with GST-tagged GDP-loaded WT KRAS (amino acids 1-169) (Homo sapiens, UniProt P01116). Put plainly: KRAS WT probe displacement assay (run with KRAS G12V, Table 2). As to conditions: read-out: KRAS^WT Probe Displacement Assay IC50, TR-FRET, 3 nM WT KRAS, biotinylated probe 1. A general note: Time-resolved FRET reads energy transfer from a long-lived donor to a nearby acceptor.
In experiment [2] the target is GST-tagged GDP-loaded KRAS G12V (amino acids 1-169) (Homo sapiens, UniProt P01116, G12V). Kind of experiment: KRAS G12V probe displacement assay. The conditions noted are these: read-out: KRAS^G12V Probe Displacement Assay IC50; TR-FRET, 2 nM KRAS G12V, biotinylated probe 2.
Experiment [3] relates to pERK1/2(THR202/TYR204) level in SW620 cell line. Kind of experiment: KRAS G12V pERK assay. As to conditions: read-out: SW620 pERK IC50; SW620 cells, 2 hrs compound treatment, HTRF. The protocol: SW620 cell line was used in this study. Cells were maintained in RPMI 1640 supplemented with 10% fetal bovine serum (Thermo Fisher), 50 units/mL penicillin and streptomycin (Thermo Fisher) and kept at 37° C. in a humidified atmosphere of 5% CO2 in air. Cells were reinstated from frozen stocks that were laid down within 30 passages from the original cells purchased. 40000 cells per well were seeded into a 96-well plate and incubated overnight. Cells were treated with a 10-point dilution series. The final compound concentration is from 0 to 10 μM. After 2 hrs compound treatment, cells were lysed, and the pERK1/2(THR202/TYR204) level in the cell lysates was detected by HTRF kit (Cisbio). In brief, a total of 16 μL of cell lysate from each well of a 96-well plate was transferred to a 384-well white assay plate. Lysate from each well was incubated with 2 μL of Eu3+-cryptate (donor) labeled anti-phospho-ERK1/2 and 2 μL of D2 (acceptor) labeled anti-phospho-ERK1/2 antibodies (Cisbio) overnight in dark at room temperature. When donor and acceptor are in close proximity, excitation of the donor with laser triggers a Fluorescence Resonance Energy Transfer (FRET) towards the acceptor, which in turn fluoresces at 655 nm wavelength. FRET signals were measured using a PHERAstar FSX reader (BMG Labtech). […]

Regarding `Nc1cc(Cl)c(C(F)(F)F)c(-c2nc3c4c(nc(OC[C@@]56CCCN5C[C@H](F)C6)nc4c2F)N2CCCOC[C@H]2CO3)c1`, the IC50 (in general, the point on the concentration scale where inhibition reaches its midpoint) in experiment [1] turned out to be 0.65 nM; in experiment [2], 0.88 nM; in experiment [3], 40 nM.
